In patent US7785564B2, “Design and synthesis of renal dipeptidase inhibitors” (The Johns Hopkins University, priority 2002, dated 2010):
Read-outs that look alike come from different tables or passages of the source.

Chains of the proteins cited; added tags and fusions are not shown. Residues count along the entry.
UniProt P16444, 17-385 limits assumed: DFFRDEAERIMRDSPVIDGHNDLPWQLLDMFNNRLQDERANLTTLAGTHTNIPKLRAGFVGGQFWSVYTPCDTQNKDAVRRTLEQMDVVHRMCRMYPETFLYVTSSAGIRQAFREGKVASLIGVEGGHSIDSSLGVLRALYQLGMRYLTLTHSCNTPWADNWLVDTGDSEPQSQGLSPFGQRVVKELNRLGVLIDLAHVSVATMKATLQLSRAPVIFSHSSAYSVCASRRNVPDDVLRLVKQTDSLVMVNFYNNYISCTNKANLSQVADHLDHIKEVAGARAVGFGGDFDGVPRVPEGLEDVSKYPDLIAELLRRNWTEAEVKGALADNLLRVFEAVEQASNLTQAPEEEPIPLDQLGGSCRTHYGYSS

Legend:
Renal Dipeptidase (RDP) [1] = target: T1, Renal Dipeptidase (RDP) (Homo sapiens, UniProt P16444); test: RDP inhibition assay (IC50), small intestine lysate, fluorogenic substrate ε-DNP-L-Lys-D-Amp; settings: read-out: RDP inhibition IC50, Table 2
Renal Dipeptidase (RDP) [2] = target: T1, Renal Dipeptidase (RDP)

NC(CC1CCCCC1)P(=O)(O)C/C(=C\c1ccccc1I)C(=O)O (centres unmarked)
IC50 (Renal Dipeptidase (RDP) [1]): 100 nM
IC50 (Renal Dipeptidase (RDP) [2]): 300 nM
